Blank lines part the entries; values can stand above or below the compound they belong to.
Assays:
[1] = biological target: human growth hormone secretagogue receptor (hGHS-R1a) (Homo sapiens, UniProt Q92847); test: Competitive radioligand binding assay (ghrelin receptor), standard method A; conditions: binding activity at the human ghrelin receptor
[2] = biological target: GHS-R1a receptor (human ghrelin receptor) (Homo sapiens, UniProt Q92847); test: Aequorin functional assay (ghrelin receptor), standard method B; conditions: functional activity at the human ghrelin receptor

Chains of the proteins cited; added tags and fusions are not shown.
UniProt Q92847, whole entry: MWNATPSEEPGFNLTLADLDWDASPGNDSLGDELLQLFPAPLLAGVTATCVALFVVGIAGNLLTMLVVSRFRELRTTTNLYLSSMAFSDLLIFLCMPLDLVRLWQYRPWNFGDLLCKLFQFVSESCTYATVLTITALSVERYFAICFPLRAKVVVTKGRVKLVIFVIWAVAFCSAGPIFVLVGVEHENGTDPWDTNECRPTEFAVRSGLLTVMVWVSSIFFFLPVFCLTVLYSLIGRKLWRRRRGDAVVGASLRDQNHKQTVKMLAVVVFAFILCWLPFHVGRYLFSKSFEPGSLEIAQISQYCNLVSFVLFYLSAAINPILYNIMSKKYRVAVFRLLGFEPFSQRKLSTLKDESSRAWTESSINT

SMILES: C[C@@H]1C(=O)N[C@H](Cc2ccc(O)cc2)C(=O)NCCCc2ccccc2O[C@H](C)[C@@H](C)N[C@@H](C2CC2)C(=O)N1C
Ki [1]: < 500 nM

SMILES: C[C@@H]1CN[C@@H](C2CC2)C(=O)N(C)[C@H](C)C(=O)N[C@H](Cc2ccc(F)cc2)C(=O)NCCCc2ccc(Cl)cc2O1
Ki [1]: < 500 nM

SMILES: C[C@@H]1CN[C@@H](C2CC2)C(=O)N(C)[C@H](C)C(=O)N[C@H]([C@@H](C)c2ccc(O)cc2)C(=O)N[C@@H](C)CCc2ccccc2O1
Ki [1]: < 100 nM

SMILES: CC(C)C[C@H]1NC(=O)[C@@H](C)N(C)C(=O)[C@H](C2CC2)NCC2Cc3cccc(c3O2)CCCNC1=O (single isomer, unassigned)
Ki [1]: < 500 nM

SMILES: CC1CCc2ccccc2OCCNC(C2CC2)C(=O)N(C)C(C)C(=O)NC(Cc2ccc(O)cc2)C(=O)N1 (single isomer, unassigned)
Ki [1]: < 100 nM

SMILES: C[C@@H]1C(=O)N[C@H](Cc2ccc(F)cc2)C(=O)NCCCc2cccc3c2OC(CN[C@@H](C2CC2)C(=O)N1C)C3 (single isomer, unassigned)
Ki [1]: < 100 nM

SMILES: CCC(C)C1NCCOc2ccccc2CCCNC(=O)C(Cc2ccccc2)NC(=O)C(CO)N(C)C1=O (single isomer, unassigned) [934b]
Ki [1]: > 500 nM

SMILES: CC1CCNC(=O)[C@@H](Cc2ccc(F)cc2)NC(=O)[C@@H](C)N(C)C(=O)[C@H](C2CC2)NC[C@@H](C)Oc2ccccc21 (single isomer, unassigned) [1017a]
Ki [1]: < 100 nM

SMILES: CC1CCc2ncccc2OC(C)CNC(C2CC2)C(=O)N(C)C(C)C(=O)NC(Cc2ccc(O)cc2)C(=O)N1 (single isomer, unassigned) [1087a]
Ki [1]: < 500 nM

SMILES: CC1CCc2ncccc2OC(C)CNC(C2CC2)C(=O)N(C)C(C)C(=O)NC(C(C)c2ccc(O)cc2)C(=O)N1 (single isomer, unassigned) [1098a]
Ki [1]: < 500 nM

Results, then the compound that gave them:

Ki [1]: < 100 nM
SMILES: CC(C)C[C@H]1NC(=O)[C@@H](C)N(C)C(=O)[C@H](C2CC2)NC[C@H]2CCC3CCCC(CCCNC1=O)C3O2 (stereo partly drawn)

Ki [1]: < 100 nM
SMILES: CC(C)C[C@H]1NC(=O)[C@@H](C)N(C)C(=O)[C@H](C2CC2)NC[C@H]2CCc3ccnc(c3O2)CCCNC1=O

Ki [1]: < 100 nM
SMILES: CC(C)[C@@H]1NCCOc2ccccc2CCCNC(=O)[C@@H](Cc2ccc(Cl)cc2)NC(=O)[C@@H](C)N(C)C1=O

Ki [1]: < 500 nM
SMILES: C[C@@H]1CN[C@@H](C2CC2)C(=O)N(C)[C@H](C)C(=O)N[C@H](Cc2ccc(Cl)cc2)C(=O)NCCCc2ccc(Cl)cc2O1

Ki [1]: > 500 nM
SMILES: CC(C)CC1NC(=O)C(C)N(C)C(=O)C(C2CC2)NCC(C)Oc2cccnc2CCCNC1=O (single isomer, unassigned)

Ki [1]: < 100 nM | EC50 [2]: < 400 nM
SMILES: CCC(C)C1NCC(C)Oc2ccccc2CCCNC(=O)C(CC(C)C)NC(=O)C(C)N(C)C1=O (single isomer, unassigned)

Ki [1]: < 100 nM
SMILES: CCC(C)C1NCCOc2ccccc2CCCNC(=O)C(Cc2ccccc2)NC(=O)C(CO)N(C)C1=O (single isomer, unassigned) [934a]

Ki [1]: < 100 nM | EC50 [2]: < 400 nM
SMILES: CC1CNC(C2CC2)C(=O)N(C)C(C)C(=O)NC(Cc2cccnc2)C(=O)NCCCc2cccc(F)c2O1 (single isomer, unassigned) [973a]

Ki [1]: > 500 nM | EC50 [2]: < 400 nM
SMILES: CC1CNC(C2CC2)C(=O)N(C)C(C)C(=O)NC(Cc2cccnc2)C(=O)NCCCc2cccc(F)c2O1 (single isomer, unassigned) [973b]

Ki [1]: < 500 nM
SMILES: CC1CCNC(=O)[C@@H](Cc2ccc(F)cc2)NC(=O)[C@@H](C)N(C)C(=O)[C@H](C2CC2)NC[C@@H](C)Oc2ccccc21 (single isomer, unassigned) [1017b]

Ki [1]: < 100 nM
SMILES: CC1CCc2ncccc2OC(C)CNC(C2CC2)C(=O)N(C)C(C)C(=O)NC(Cc2ccc(O)cc2)C(=O)N1 (single isomer, unassigned) [1087b]

Ki [1]: < 100 nM
SMILES: CC1CCc2ncccc2OC(C)CNC(C2CC2)C(=O)N(C)C(C)C(=O)NC(Cc2ccc(O)cc2)C(=O)N1 (single isomer, unassigned) [1089a]

Ki [1]: < 500 nM
SMILES: CC1CCc2ncccc2OC(C)CNC(C2CC2)C(=O)N(C)C(C)C(=O)NC(Cc2ccc(O)cc2)C(=O)N1 (single isomer, unassigned) [1089b]

Ki [1]: < 100 nM
SMILES: CC1CCc2ncccc2OC(C)CNC(C2CC2)C(=O)N(C)C(C)C(=O)NC(C(C)c2ccc(O)cc2)C(=O)N1 (single isomer, unassigned) [1098b]
